Source: US12576087B2, “Aryloxypiperidine pyrazole compounds as indoleamine 2,3-dioxygenase inhibitors” (Merck Sharp & Dohme LLC, priority 2018, dated 2026)

By UniProt entry, the sequences of proteins in these tests, tags left out.
UniProt P14902, whole entry: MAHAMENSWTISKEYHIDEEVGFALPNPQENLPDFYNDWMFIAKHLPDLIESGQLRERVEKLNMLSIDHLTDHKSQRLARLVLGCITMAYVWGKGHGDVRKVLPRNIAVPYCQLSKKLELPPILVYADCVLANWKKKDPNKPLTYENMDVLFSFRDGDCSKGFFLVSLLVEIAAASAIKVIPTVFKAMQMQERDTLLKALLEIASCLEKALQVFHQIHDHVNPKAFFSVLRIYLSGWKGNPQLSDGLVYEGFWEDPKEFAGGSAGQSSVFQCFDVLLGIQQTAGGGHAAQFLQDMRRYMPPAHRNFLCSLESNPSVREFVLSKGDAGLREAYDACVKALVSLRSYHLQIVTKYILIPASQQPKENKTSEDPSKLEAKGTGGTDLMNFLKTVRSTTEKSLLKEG

Target: IDO1 (Homo sapiens, UniProt P14902)
Test: IDO1 Cellular Assay in HeLa Cells Stimulated with IFNγ
Format: cell-based
Conditions: HeLa cells stimulated with IFNγ 100 ng/mL, about 48 hours

| EC50 [nM] | Compound |
| --- | --- |
| 26.9 | C[C@@H]1CN(C(=O)c2nn(CC(=O)N3CCC(Oc4ccc(Cl)c(F)c4)CC3)c3c2CCC3)C[C@H](C)O1 [Example 148, 1-[4-(4-chloro-3-fluorophenoxy)piperidin-1-yl]-2-{3-[(2R,6S)-2,6-dimethylmorpholine-4-carbonyl]-5,6-dihydrocyclopenta[c]pyrazol-1(4H)-yl}ethan-1-one] |
| 27.6 | C[C@@H]1CN(C(=O)c2nn(CC(=O)N3CCC(Oc4cc(F)ccc4F)CC3)c3c2CCC3)C[C@H](C)O1 [Example 149, 1-[4-(2,5-difluorophenoxy)piperidin-1-yl]-2-{3-[(2R,6S)-2,6-dimethylmorpholine-4-carbonyl]-5,6-dihydrocyclopenta[c]pyrazol-1(4H)-yl}ethan-1-one] |
| 28.9 | Cc1ccc(F)c(OC2CCN(C(=O)Cn3nc(C(=O)N4C[C@@H](C)O[C@@H](C)C4)c4c3CCC4)CC2)c1 [Example 150, 2-{3-[(2R,6S)-2,6-dimethylmorpholine-4-carbonyl]-5,6-dihydrocyclopenta[c]pyrazol-1(4H)-yl}-1-[4-(2-fluoro-5-methylphenoxy)piperidin-1-yl]ethan-1-one] |
| 34.6 | Cc1cc(OC2CCN(C(=O)Cn3nc(C(=O)N4C[C@@H](C)O[C@@H](C)C4)c4c3CCC4)CC2)ccc1F [Example 151, 2-{3-[(2R,6S)-2,6-dimethylmorpholine-4-carbonyl]-5,6-dihydrocyclopenta[c]pyrazol-1(4H)-yl}-1-[4-(4-fluoro-3-methylphenoxy)piperidin-1-yl]ethan-1-one] |
| 35.4 | Cc1cc(C)c(C)c(OC2CCN(C(=O)Cn3nc(C(=O)N4C[C@@H](C)O[C@@H](C)C4)c4c3CCC4)CC2)c1 [Example 152, 2-{3-[(2R,6S)-2,6-dimethylmorpholine-4-carbonyl]-5,6-dihydrocyclopenta[c]pyrazol-1(4H)-yl}-1-[4-(2,3,5-trimethylphenoxy)piperidin-1-yl]ethan-1-one] |
| 37.9 | C[C@@H]1CN(C(=O)c2nn(CC(=O)N3CCC(Oc4c(F)cccc4F)CC3)c3c2CCC3)C[C@H](C)O1 [Example 153, 1-[4-(2,6-difluorophenoxy)piperidin-1-yl]-2-{3-[(2R,6S)-2,6-dimethylmorpholine-4-carbonyl]-5,6-dihydrocyclopenta[c]pyrazol-1(4H)-yl}ethan-1-one] |
| 42.8 | C[C@@H]1CN(C(=O)c2nn(CC(=O)N3CCC(Oc4ccc(Cl)cc4F)CC3)c3c2CCC3)C[C@H](C)O1 [Example 154, 1-[4-(4-chloro-2-fluorophenoxy)piperidin-1-yl]-2-{3-[(2R,6S)-2,6-dimethylmorpholine-4-carbonyl]-5,6-dihydrocyclopenta[c]pyrazol-1(4H)-yl}ethan-1-one] |
| 43.9 | C[C@@H]1CN(C(=O)c2nn(CC(=O)N3CCC(Oc4ccc(F)c(F)c4F)CC3)c3c2CCC3)C[C@H](C)O1 [Example 155, 2-{3-[(2R,6S)-2,6-dimethylmorpholine-4-carbonyl]-5,6-dihydrocyclopenta[c]pyrazol-1(4H)-yl}-1-[4-(2,3,4-trifluorophenoxy)piperidin-1-yl]ethan-1-one] |
| 46.9 | C[C@@H]1CN(C(=O)c2nn(CC(=O)N3CCC(Oc4cccc5cnccc45)CC3)c3c2CCC3)C[C@H](C)O1 [Example 156, 2-{3-[(2R,6S)-2,6-dimethylmorpholine-4-carbonyl]-5,6-dihydrocyclopenta[c]pyrazol-1(4H)-yl}-1-{4-[(isoquinolin-5-yl)oxy]piperidin-1-yl}ethan-1-one] |
| 79.4 | C[C@@H]1CN(C(=O)c2nn(CC(=O)N3CCC(Oc4c(F)cc(F)cc4F)CC3)c3c2CCC3)C[C@H](C)O1 [Example 157, 2-{3-[(2R,6S)-2,6-dimethylmorpholine-4-carbonyl]-5,6-dihydrocyclopenta[c]pyrazol-1(4H)-yl}-1-[4-(2,4,6-trifluorophenoxy)piperidin-1-yl]ethan-1-one] |
| 80.6 | C[C@@H]1CN(C(=O)c2nn(CC(=O)N3CCC(Oc4cccc(F)c4Br)CC3)c3c2CCC3)C[C@H](C)O1 [Example 158, 1-[4-(2-bromo-3-fluorophenoxy)piperidin-1-yl]-2-{3-[(2R,6S)-2,6-dimethylmorpholine-4-carbonyl]-5,6-dihydrocyclopenta[c]pyrazol-1(4H)-yl}ethan-1-one] |
| 138 | C[C@@H]1CN(C(=O)c2nn(CC(=O)N3CCC(Oc4cccc(C(F)(F)F)c4Cl)CC3)c3c2CCC3)C[C@H](C)O1 [Example 159, 1-{4-[2-chloro-3-(trifluoromethyl)phenoxy]piperidin-1-yl}-2-{3-[(2R,6S)-2,6-dimethylmorpholine-4-carbonyl]-5,6-dihydrocyclopenta[c]pyrazol-1(4H)-yl}ethan-1-one] |
| 173 | C[C@@H]1CN(C(=O)c2nn(CC(=O)N3CCC(Oc4cc(C(F)(F)F)ccc4Cl)CC3)c3c2CCC3)C[C@H](C)O1 [Example 160, 1-{4-[2-chloro-5-(trifluoromethyl)phenoxy]piperidin-1-yl}-2-{3-[(2R,6S)-2,6-dimethylmorpholine-4-carbonyl]-5,6-dihydrocyclopenta[c]pyrazol-1(4H)-yl}ethan-1-one] |
| 239 | C[C@@H]1CN(C(=O)c2nn(CC(=O)N3CCC(Oc4ccc5sncc5c4)CC3)c3c2CCC3)C[C@H](C)O1 [Example 161, 1-{4-[(1,2-benzothiazol-5-yl)oxy]piperidin-1-yl}-2-{3-[(2R,6S)-2,6-dimethylmorpholine-4-carbonyl]-5,6-dihydrocyclopenta[c]pyrazol-1(4H)-yl}ethan-1-one] |
| 270 | C[C@@H]1CN(C(=O)c2nn(CC(=O)N3CCC(Oc4ccc5ncccc5c4)CC3)c3c2CCC3)C[C@H](C)O1 [Example 162, 2-{3-[(2R,6S)-2,6-dimethylmorpholine-4-carbonyl]-5,6-dihydrocyclopenta[c]pyrazol-1(4H)-yl}-1-{4-[(quinolin-6-yl)oxy]piperidin-1-yl}ethan-1-one] |
| 319 | C[C@@H]1CN(C(=O)c2nn(CC(=O)N3CCC(Oc4cccc(C(F)(F)F)c4F)CC3)c3c2CCC3)C[C@H](C)O1 [Example 163, 2-{3-[(2R,6S)-2,6-dimethylmorpholine-4-carbonyl]-5,6-dihydrocyclopenta[c]pyrazol-1(4H)-yl}-1-{4-[2-fluoro-3-(trifluoromethyl)phenoxy]piperidin-1-yl}ethan-1-one] |
| 370 | C[C@@H]1CN(C(=O)c2nn(CC(=O)N3CCC(Oc4ccc5ccncc5c4)CC3)c3c2CCC3)C[C@H](C)O1 [Example 164, 2-{3-[(2R,6S)-2,6-dimethylmorpholine-4-carbonyl]-5,6-dihydrocyclopenta[c]pyrazol-1(4H)-yl}-1-{4-[(isoquinolin-7-yl)oxy]piperidin-1-yl}ethan-1-one] |
| 402 | C[C@@H]1CN(C(=O)c2nn(CC(=O)N3CCC(Oc4cccc(OC(F)(F)F)c4)CC3)c3c2CCC3)C[C@H](C)O1 [Example 165, 2-{3-[(2R,6S)-2,6-dimethylmorpholine-4-carbonyl]-5,6-dihydrocyclopenta[c]pyrazol-1(4H)-yl}-1-{4-[3-(trifluoromethoxy)phenoxy]piperidin-1-yl}ethan-1-one] |
| 175 | C[C@@H]1CN(C(=O)c2nn(CC(=O)N3CCC(OC4CCCC4)CC3)c3c2CCC3)C[C@H](C)O1 [Example 166, 1-(4-(Cyclopentyloxy)piperidin-1-yl)-2-(3-((2S,6R)-2,6-dimethylmorpholine-4-carbonyl)-5,6-dihydrocyclopenta[c]pyrazol-1(4H)-yl)ethan-1-one] |
| 278 | C[C@@H]1CN(C(=O)c2nn(CC(=O)N3CCC(F)(Cc4ccccc4)CC3)c3c2CCC3)C[C@H](C)O1 [Example 167, 1-(4-Benzyl-4-fluoropiperidin-1-yl)-2-(3-((2S,6R)-2,6-dimethylmorpholine-4-carbonyl)-5,6-dihydrocyclopenta[c]pyrazol-1(4H)-yl)ethan-1-one] |
| 34.8 | O=C(Cn1nc(C(=O)N2CC[C@H](O)[C@@H](F)C2)c2c1CCC2)N1CCC(C(F)(F)c2ccccc2)CC1 [Example 174, 1-(4-(Difluoro(phenyl)methyl)piperidin-1-yl)-2-(3-((3S,4S)-3-fluoro-4-hydroxypiperidine-1-carbonyl)-5,6-dihydrocyclopenta[c]pyrazol-1(4H)-yl)ethanone] |
| 118 | O=C(Cn1nc(C(=O)N2CC[C@H](O)[C@H](F)C2)c2c1CCC2)N1CCC(C(F)(F)c2ccccc2)CC1 [Example 175, 1-(4-(Difluoro(phenyl)methyl)piperidin-1-yl)-2-(3-((3R,4S)-3-fluoro-4-hydroxypiperidine-1-carbonyl)-5,6-dihydrocyclopenta[c]pyrazol-1(4H)-yl)ethanone] |
| 4.51 | Cc1ccccc1NC1CCN(C(=O)Cn2nc(C(=O)N3CCC(F)(CO)CC3)c3c2C[C@H]2C[C@@H]32)CC1 [Example 176, 2-((3bR,4aR)-3-(4-Fluoro-4-(hydroxymethyl)piperidine-1-carbonyl)-3b,4,4a,5-tetrahydro-1H-cyclopropa[3,4]cyclopenta[1,2-c]pyrazol-1-yl)-1-(4-(o-tolylamino)piperidin-1-yl)ethan-1-one] |
| 0.51 | Cc1ccccc1SC1CCN(C(=O)Cn2nc(C(=O)N3CC[C@@H](O)[C@@H](F)C3)c3c2C[C@H]2C[C@@H]32)CC1 [Example 177, 2-((3bR,4aR)-3-((3S,4R)-3-Fluoro-4-hydroxypiperidine-1-carbonyl)-3b,4,4a,5-tetrahydro-1H-cyclopropa[3,4]cyclopenta[1,2-c]pyrazol-1-yl)-1-(4-(o-tolylthio)piperidin-1-yl)ethanone] |
| 12.5 | Cc1ccccc1SC1CCN(C(=O)Cn2nc(C(=O)N3CC[C@H](O)[C@H](F)C3)c3c2C[C@H]2C[C@@H]32)CC1 [Example 178, 2-((3bR,4aR)-3-((3R,4S)-3-fluoro-4-hydroxypiperidine-1-carbonyl)-3b,4,4a,5-tetrahydro-1H-cyclopropa[3,4]cyclopenta[1,2-c]pyrazol-1-yl)-1-(4-(o-tolylthio)piperidin-1-yl)ethanone] |
| 87.2 | Cc1ccccc1[S+]([O-])C1CCN(C(=O)Cn2nc(C(=O)N3CC[C@H](O)[C@H](F)C3)c3c2C[C@H]2C[C@@H]32)CC1 (stereo partly drawn) [Example 179, 2-((3bR,4aR)-3-((3R,4S)-3-fluoro-4-hydroxypiperidine-1-carbonyl)-3b,4,4a,5-tetrahydro-1H-cyclopropa[3,4]cyclopenta[1,2-c]pyrazol-1-yl)-1-(4-(o-tolylsulfinyl)piperidin-1-yl)ethanone] |
